Test system: LU-01-0015 (HIP-ALK) patient derived lung-tumor xenografts
Experiment: LU-01-0015 patient-derived xenograft model (tumor volume, body weight)
Type: in vivo, BALB/c nude mice
Conditions: nude mouse xenograft models (LU-01-0015, NCI-H3122), all P ≥ 0.05

C[C@@H](Oc1cc(-c2cnn(C3CCNCC3)c2)cnc1N)c1c(Cl)ccc(F)c1Cl [Crizotinib, reference compound]
effect on body weight: no effect

From PMC10140010 (Investigational New Drugs, 2023)
